Measured values: ChEMBL document CHEMBL4725369, “Multicomponent Synthesis, Binding Mode, and Structure-Activity Relationship of Selective Histone Deacetylase 6 (HDAC6) Inhibitors with Bifurcated Capping Groups” (J Med Chem, 2020)

Columns and labels:
Homo sapiens [1] = species: Homo sapiens; test: Selectivity index, ratio of IC50 for inhibition of human recombinant HDAC2 to IC50 for inhibition of human recombinant HDAC6
Homo sapiens [2] = species: Homo sapiens; test: Selectivity index, ratio of IC50 for inhibition of human recombinant HDAC3 to IC50 for inhibition of human recombinant HDAC6
Homo sapiens [3] = species: Homo sapiens; test: Selectivity index, ratio of IC50 for inhibition of human recombinant HDAC4 to IC50 for inhibition of human recombinant HDAC6

## O=C(NO)c1ccc(CN(Cc2nnnn2Cc2ccccc2)C(=O)c2ccccc2C(F)(F)F)cc1
Homo sapiens [1]
  Ratio IC50: 75
Homo sapiens [2]
  Ratio IC50: 282
Homo sapiens [3]
  Ratio IC50: 184
